{"sequences": {"note": "By UniProt entry, the sequences of proteins in these tests, tags left out.", "UniProt P07550, whole entry": "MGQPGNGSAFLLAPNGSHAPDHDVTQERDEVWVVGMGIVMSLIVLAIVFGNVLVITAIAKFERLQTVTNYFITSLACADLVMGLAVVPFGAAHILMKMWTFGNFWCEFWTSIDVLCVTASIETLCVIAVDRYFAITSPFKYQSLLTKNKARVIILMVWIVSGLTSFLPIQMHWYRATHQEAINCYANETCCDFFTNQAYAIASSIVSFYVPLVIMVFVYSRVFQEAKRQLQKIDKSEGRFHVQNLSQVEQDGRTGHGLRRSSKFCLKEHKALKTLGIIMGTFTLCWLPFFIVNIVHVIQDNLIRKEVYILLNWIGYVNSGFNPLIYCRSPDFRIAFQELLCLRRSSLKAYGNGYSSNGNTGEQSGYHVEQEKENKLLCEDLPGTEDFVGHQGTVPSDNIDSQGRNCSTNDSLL"}, "source": "PubChem BioAssay AID504454", "about": "(NMMLSC, 2011)", "note": "This is a selection; strong and weak results do not stand in their true shares. Some salts or complexes appear as unconnected parts, following the source record. Calls of active or inactive are those of the source.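 How the source made its calls: active means response above a set limit, near 3 SD of response in nonfluorescent compounds (cut at about 42% in these data); inactive means the rest.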"}
{"biological_target": "Beta-2 adrenergic receptor (Homo sapiens) (UniProt P07550)", "assay": "beta2AR agonists driving receptor internalization, primary screen, cell-based, FAP fluorogen, flow cytometry (AID 504454)", "details": "Am2.2-beta2AR cells, active compounds read high, concentration not given here"}
{"smiles": "COC(=O)C1(C)COP(=O)(Nc2ccccc2)OC1", "note": "(stereo not drawn)", "response": "inactive: -2.48%"}
{"smiles": "O=[N+]([O-])c1cccc(NC2=NCC(CBr)S2)c1", "note": "(stereo not drawn)", "response": "inactive: 3.17%"}
{"smiles": "O=C(O)CNc1ccc([As](=O)(O)O)cc1", "response": "inactive: -6.03%"}
{"smiles": "CC(C)(C)C(=O)NC(Sc1ccncn1)C(Cl)(Cl)Cl", "note": "(stereo not drawn)", "response": "inactive: 2.21%"}
{"smiles": "O=[N+]([O-])c1ncn(CCn2ncnc2[N+](=O)[O-])n1", "response": "inactive: 3.8%"}
{"smiles": "CCOC(=O)c1ccc(NP(C)(=O)Oc2ccc(Cl)cc2)cc1", "note": "(stereo not drawn)", "response": "inactive: -8.25%"}
{"smiles": "O=C(Nc1cc([As](=O)(O)O)ccc1O)c1ccccc1", "response": "inactive: -3.53%"}
{"smiles": "CP(=O)(OC12CC3CC(CC(C3)C1)C2)OC12CC3CC(CC(C3)C1)C2", "response": "inactive: -6.02%"}
{"smiles": "Nc1ccc2c(ccc3cccnc32)n1.O=[N+]([O-])c1cc([N+](=O)[O-])c(O)c([N+](=O)[O-])c1", "response": "inactive: 16.8%"}
{"smiles": "O=P1(N(CCCl)CCCl)OCCCS1", "note": "(stereo not drawn)", "response": "inactive: -8.16%"}
{"smiles": "CC(C)=N/N=C(\\N)N[N+](=O)[O-]", "response": "inactive: -6.58%"}
{"smiles": "CN(C)C(=O)c1c([N+](=O)[O-])cc([N+](=O)[O-])cc1[N+](=O)[O-]", "response": "inactive: 7.68%"}
{"smiles": "CN(C)C(=O)OCCc1n(C)cc[n+]1C", "response": "inactive: -10.1%"}
{"smiles": "CC1CCN(C(=O)Oc2c(Cl)cc(Cl)c3cccnc23)CC1", "response": "inactive: 4%"}
{"smiles": "COc1ccccc1OP(C)(=O)Nc1ccccc1Br", "note": "(stereo not drawn)", "response": "inactive: -1.33%"}
{"smiles": "Nc1ccc([As](=O)(O)c2ccc(N)cc2)cc1", "response": "inactive: -2.96%"}
{"smiles": "CC(C)(C)c1ccc(OP(C)(=O)O)cc1", "response": "inactive: 5.91%"}
{"smiles": "C[N+]1=C2C=CC=CC=C2SC12C([N+](=O)[O-])=CC([N+](=O)[O-])=C[C-]2[N+](=O)[O-]", "note": "(stereo not drawn)", "response": "inactive: 41.8%"}
{"smiles": "CCN(/C(=N/P(=O)(N1CCOCC1)N1CCOCC1)N1CCOCC1)c1ccc(OC)cc1", "response": "inactive: -4.64%"}
{"smiles": "CP(=O)(Nc1ccc(Cl)cc1)Oc1ccc(F)cc1", "note": "(stereo not drawn)", "response": "inactive: 0.43%"}
{"smiles": "CC(=O)N1C2C3N(C(C)=O)C1C1N(C(C)=O)C(C(N1C(C)=O)N3C(C)=O)N2C(C)=O", "response": "inactive: 3.47%"}
{"smiles": "O=[N+]([O-])c1cccc2n[nH]nc12", "response": "inactive: 6.55%"}
{"smiles": "COc1ccccc1OP(C)(=O)Nc1c(C)n(C)n(-c2ccccc2)c1=O", "note": "(stereo not drawn)", "response": "inactive: -0.5%"}
{"smiles": "O=C(OCCCN1CCCC1)C(O)(c1ccccc1)C1CCCCC1", "note": "(stereo not drawn)", "response": "inactive: 3.93%"}
{"smiles": "Cc1ccc(NP(=O)(Oc2ccccc2)Oc2ccccc2)nc1", "response": "inactive: -7.82%"}
{"smiles": "CP(=O)(Oc1ccccc1)N1CCOC1=O", "note": "(stereo not drawn)", "response": "inactive: 3.73%"}
{"smiles": "CCc1ccc(OP(C)(=O)Nc2cccnc2)cc1", "note": "(stereo not drawn)", "response": "inactive: -2.29%"}
{"smiles": "O=[N+]([O-])c1cc([N+](=O)[O-])c(CCNc2ccccc2)c([N+](=O)[O-])c1", "response": "inactive: 0.8%"}
{"smiles": "CCc1nc2c(n1)c1c(non1O)c1c2no[n+]1[O-]", "response": "inactive: 13.2%"}
{"smiles": "CCN(CC)CC(O)COC(=O)C(O)(c1ccccc1)C1CCCCC1", "note": "(stereo not drawn)", "response": "inactive: -27.1%"}
{"smiles": "COc1ccc(C2=NCC(CBr)S2)cc1", "note": "(stereo not drawn)", "response": "inactive: -2.93%"}
{"smiles": "COc1ccc(OP(C)(=O)Nc2ccc(Br)cc2)cc1", "note": "(stereo not drawn)", "response": "inactive: -3.64%"}
{"smiles": "CP(=O)(Nc1ccccn1)Oc1ccccc1", "note": "(stereo not drawn)", "response": "inactive: 0.15%"}
{"smiles": "COc1ccccc1OP(C)(=O)Nc1ccc(C)cc1C", "note": "(stereo not drawn)", "response": "inactive: 2.21%"}
{"smiles": "CCc1ccc(OP(C)(=O)O)cc1", "response": "inactive: 1.32%"}
{"smiles": "Nc1cc(N)c2nonc2c1[N+](=O)[O-]", "response": "inactive: 1.65%"}
{"smiles": "Cc1c(NP(C)(=O)Oc2ccc(C(C)C)cc2)c(=O)n(-c2ccccc2)n1C", "note": "(stereo not drawn)", "response": "inactive: -9.56%"}
{"smiles": "O=[N+]([O-])c1cc([N+](=O)[O-])c(Nc2ccccn2)c([N+](=O)[O-])c1", "response": "inactive: 18.5%"}
{"smiles": "CC(C)CC(=O)NC(Sc1ccc(Cl)cc1)C(Cl)(Cl)Cl", "note": "(stereo not drawn)", "response": "inactive: 0.1%"}
{"smiles": "Oc1ccccc1CNc1ccccn1", "response": "inactive: -3.26%"}
{"smiles": "O=C(NC(Sc1ccncn1)C(Cl)(Cl)Cl)c1ccccc1", "note": "(stereo not drawn)", "response": "inactive: -4.32%"}
{"smiles": "COc1ccccc1OP(=O)(Nc1ccc(C)cn1)Oc1ccccc1OC", "response": "inactive: 5.95%"}
{"smiles": "COc1ccc(OP(C)(=O)Nc2ccccn2)cc1", "note": "(stereo not drawn)", "response": "inactive: 11.3%"}
{"smiles": "Cc1ccc(OP(=O)(Nc2nccs2)Oc2ccc(C)cc2)cc1", "response": "inactive: 6.84%"}
{"smiles": "CN1CCCC(OC(=O)C(c2ccccc2)c2ccccc2)C1", "note": "(stereo not drawn)", "response": "inactive: 0.75%"}
{"smiles": "CN(C)CCOC(=O)C(O)(c1ccccc1)C1CCCC1", "note": "(stereo not drawn)", "response": "inactive: -2.37%"}
{"smiles": "Clc1ccc(Cl)c(NC2=NCC(CBr)S2)c1", "note": "(stereo not drawn)", "response": "inactive: 17.4%"}
{"smiles": "NC(=O)c1cc([N+](=O)[O-])cc([N+](=O)[O-])c1N", "response": "inactive: -6.24%"}
{"smiles": "CN(C(=O)Cc1ccc(Cl)c(Cl)c1)[C@H]1CCCC[C@H]1N1CCCC1", "response": "inactive: -5.53%"}
{"smiles": "COc1ccccc1OP(C)(=O)Nc1ccc(Br)cc1", "note": "(stereo not drawn)", "response": "inactive: -4.55%"}
{"smiles": "Cc1ccc(N/C(=N/P(=O)(N2CCOCC2)N2CCOCC2)N2CCOCC2)cc1", "response": "inactive: 1.55%"}
{"smiles": "CCN(N=Nc1nonc1N)c1nonc1N", "response": "inactive: 4.75%"}
{"smiles": "Nc1cccc2ccc([As](=O)(O)O)cc12", "response": "inactive: 8.35%"}
{"smiles": "CP(=O)(Nc1ccc(Cl)cc1Cl)Oc1ccccc1", "note": "(stereo not drawn)", "response": "inactive: 5.03%"}
{"smiles": "CCCCCCCCCCCCCCCC1C[N+](C)(C)CCOP(C)(=O)O1", "note": "(stereo not drawn)", "response": "inactive: 4.49%"}
{"smiles": "CP(=O)(OCCOc1ccccc1)OCCOc1ccccc1", "response": "inactive: 6.57%"}
{"smiles": "Cc1cc(SC(NC(=O)c2ccc(F)cc2)C(Cl)(Cl)Cl)ncn1", "note": "(stereo not drawn)", "response": "inactive: 3.37%"}
{"smiles": "CCOP(=O)(Nc1ccccc1)OCC", "response": "inactive: -2.59%"}
{"smiles": "COc1ccccc1OP(C)(=O)Nc1ccc(C)c(C)c1", "note": "(stereo not drawn)", "response": "inactive: 10.6%"}
{"smiles": "CN(C(=O)Cc1ccc(Cl)c(Cl)c1)[C@H]1CCCC[C@@H]1N1CCCC1", "response": "inactive: -7.93%"}
{"smiles": "Cc1ccc(NP(=O)(Oc2ccccc2F)Oc2ccccc2F)nc1", "response": "inactive: -2.39%"}
{"smiles": "COc1ccc(OP(C)(=O)Nc2ccccc2Br)cc1", "note": "(stereo not drawn)", "response": "inactive: -0.36%"}
{"smiles": "CC(=O)Nc1ccc([As](=O)(O)O)cc1", "response": "inactive: -13.5%"}
{"smiles": "O=C(O)c1ccccc1[As](=O)(O)O", "response": "inactive: -7.33%"}
{"smiles": "CCCC1OP(N)(=O)OCC1CC", "note": "(stereo not drawn)", "response": "inactive: 6.47%"}
{"smiles": "O=C1C(O)=C([N+](=O)[O-])C(=O)C(O)=C1[N+](=O)[O-]", "response": "inactive: 11.2%"}
{"smiles": "O=P(Nc1nc2ccc(Cl)cc2s1)(c1ccccc1)c1ccccc1", "response": "inactive: -4.46%"}
{"smiles": "Cc1cc(C)cc(OP(C)(=O)Nc2cccc(C(F)(F)F)c2)c1", "note": "(stereo not drawn)", "response": "inactive: 8.3%"}
{"smiles": "CP(=O)(Nc1ccccc1)Oc1ccc(F)cc1", "note": "(stereo not drawn)", "response": "inactive: 7.13%"}
{"smiles": "CC(NC(=O)COC(=O)C(O)(c1ccccc1)c1ccccc1)c1ccccc1", "note": "(stereo not drawn)", "response": "inactive: -2.13%"}
{"smiles": "Cc1ccccc1OP(=O)(Nc1ccccn1)Oc1ccccc1C", "response": "inactive: 18.7%"}
{"smiles": "O=[N+]([O-])c1cc([N+](=O)[O-])c(OC2CCCCC2O)c([N+](=O)[O-])c1", "note": "(stereo not drawn)", "response": "inactive: 4.22%"}
{"smiles": "O=c1c2cc([N+](=O)[O-])ccc2[nH]c2c([N+](=O)[O-])cc([N+](=O)[O-])cc12", "response": "inactive: 22.4%"}
{"smiles": "CCCCCOc1ccc(NP(C)(=O)Oc2ccc(Cl)cc2Cl)cc1", "note": "(stereo not drawn)", "response": "inactive: -8.9%"}
{"smiles": "CN(C)C(=O)Oc1noc2ccccc12", "response": "inactive: -8.55%"}
{"smiles": "COC(=O)c1cc2c(s1)N=C(c1ccccc1)N(C)P2(=O)N1CCOCC1", "note": "(stereo not drawn)", "response": "inactive: 1.96%"}
{"smiles": "Cc1c([N+](=O)[O-])cc([N+](=O)[O-])c(Br)c1[N+](=O)[O-]", "response": "inactive: -0.48%"}
{"smiles": "CC(=O)NC(SC(=S)N(CC(C)C)CC(C)C)C(Cl)(Cl)Cl", "note": "(stereo not drawn)", "response": "inactive: 6.04%"}
{"smiles": "Cc1ccc(OP(=O)(Nc2ccccn2)Oc2ccc(C)cc2)cc1", "response": "inactive: -10.9%"}
{"smiles": "O=C(OC1CN2CCC1CC2)c1ccccc1", "note": "(stereo not drawn)", "response": "inactive: -14.5%"}
{"smiles": "CCC(=O)N1C2C3N(C(=O)CC)C1C1N(C(=O)CC)C(C(N1C(=O)CC)N3C(=O)CC)N2C(=O)CC", "response": "inactive: 11%"}
{"smiles": "CCN(CC)CCCOC(=O)C(O)(c1ccccc1)C1CCCCC1", "note": "(stereo not drawn)", "response": "inactive: -4.35%"}
{"smiles": "O=P1(N(CCCl)CCCl)OCCC2CCCCN21", "note": "(stereo not drawn)", "response": "inactive: 1.74%"}
{"smiles": "CCOC(=O)c1ccc(NP(C)(=O)Oc2ccc(F)cc2)cc1", "note": "(stereo not drawn)", "response": "inactive: -1.15%"}
{"smiles": "COc1ccc(OP(C)(=O)Nc2ccc(SC(F)(F)F)cc2)cc1", "note": "(stereo not drawn)", "response": "inactive: -6.01%"}
{"smiles": "O=C(NC1CCS(=O)(=O)C1)NP(=S)(Oc1ccccc1)Oc1ccccc1", "note": "(stereo not drawn)", "response": "inactive: 12.6%"}
{"smiles": "CCNC(=S)/N=C(\\N)N[N+](=O)[O-]", "response": "inactive: -1.5%"}
{"smiles": "c1ccc(-c2nn[nH]n2)c(-c2nn[nH]n2)c1", "response": "inactive: -0.88%"}
{"smiles": "Cc1ccc(NP(=O)(Oc2cccc(C)c2)Oc2cccc(C)c2)nc1", "response": "inactive: -6.66%"}
{"smiles": "CC(=O)Nc1ccc([As](=O)(O)O)c(O)c1", "response": "inactive: -3.63%"}
{"smiles": "COc1ccc2c(c1O)-c1c(O)c(OC)cc3c1[C@H](C2)[N+](C)(C)CC3.O=[N+]([O-])c1cc([N+](=O)[O-])c([O-])c([N+](=O)[O-])c1[O-]", "response": "inactive: -0.37%"}
{"smiles": "CC(=O)Nc1ccc(Oc2c([N+](=O)[O-])cc([N+](=O)[O-])cc2[N+](=O)[O-])cc1", "response": "inactive: 12.3%"}
{"smiles": "CC(=O)c1ccc(N2CC2c2ccncc2)cc1", "note": "(stereo not drawn)", "response": "inactive: -0.98%"}
{"smiles": "N#C/C(=C\\c1ccc(N(CCBr)CCBr)cc1)C(N)=O", "response": "inactive: 10.7%"}
{"smiles": "COC(=O)C1(C)COP(=O)(NCc2ccccc2)OC1", "note": "(stereo not drawn)", "response": "inactive: -4.65%"}
{"smiles": "O=C(OC1CN2CCC1CC2)c1ccc([N+](=O)[O-])cc1", "note": "(stereo not drawn)", "response": "inactive: 0.83%"}
{"smiles": "O=C(OCCN1CCN(CCOCc2ccccc2)CC1)C(O)(c1ccccc1)c1ccccc1", "response": "inactive: -9.25%"}
{"smiles": "Cc1ccccc1CN(C)C(=O)COC(=O)C(O)(c1ccccc1)c1ccccc1", "response": "inactive: -9.91%"}
